Target: Aromatase (Homo sapiens, UniProt P11511)

Amino acid sequences for entries named in this document (tags omitted). A change or cut given only in a name is not applied to a line headed by its entry.
UniProt P11511: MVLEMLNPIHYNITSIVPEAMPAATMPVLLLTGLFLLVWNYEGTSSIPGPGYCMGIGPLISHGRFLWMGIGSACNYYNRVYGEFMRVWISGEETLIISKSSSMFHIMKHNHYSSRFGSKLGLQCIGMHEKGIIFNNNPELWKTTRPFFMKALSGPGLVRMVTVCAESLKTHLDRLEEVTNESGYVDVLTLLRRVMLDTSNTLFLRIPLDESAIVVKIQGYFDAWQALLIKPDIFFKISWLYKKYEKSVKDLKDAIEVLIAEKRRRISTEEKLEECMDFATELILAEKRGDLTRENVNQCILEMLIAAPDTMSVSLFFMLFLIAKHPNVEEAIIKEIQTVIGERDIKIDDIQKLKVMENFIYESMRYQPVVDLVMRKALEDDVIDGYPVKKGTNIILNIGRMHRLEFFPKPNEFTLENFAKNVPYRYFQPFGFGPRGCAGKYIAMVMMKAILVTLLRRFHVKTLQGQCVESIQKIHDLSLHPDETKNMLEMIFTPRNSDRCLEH

C[C@]12CCCC=C1CC[C@@H]1[C@@H]2CC[C@]2(C)C(=O)CC[C@@H]12
Ki: 37 nM
